Literature values, collected in patent publication US9169307B2, “Potent compstatin analogs” (The Trustees of the University of Pennsylvania, priority 2005, dated 2015).

Details: intravenous bolus into rabbits; cited from earlier work

For “AcRLIEDICLPRWGCLWEDDNH2 (N-terminal acetyl, C-terminal amide) [SA21]”, which half-life is on record?
Its half-life is 2.3 h.
